Measured values published in patent US8158340B2, “Methods for detecting conformational changes in bioentities” (Corning Incorporated, priority 2005, dated 2012).

Tested on: trypsin or chymotrypsin
Test: Conformational assay: label-independent digestion of immobilized albumins
Assay type: biochemical
Conditions: relative to normal BSA; FIGS. 3 and 4
Description: In this assay, it was determined whether or not a label-independent detection assay can distinguish between different albumins by digestion with either trypsin or chymotrypsin on the Epic™ system. In this assay, digestion of BSA, acetylated BSA, methylated BSA, human serum albumin, baboon albumin and chicken albumin was examined, and the results are depicted in FIGS. 3 and 4. […] With trypsin digestion (FIG. 3), the acetylated BSA may be more denatured than the other BSA. […] In short, the digestion profiles were unique to several different protein sequences and chemical modifications. Chymotrypsin rates (FIG. 4) were not equal to trypsin digestion rates. […] These digestion signatures are informative in that they can be used to correlate function with structural integrity.

“human serum albumin: human serum albumin” was tested, and the “digestion profile of immobilized albumin” value was “closely similar digestions but not identical”.
